From patent publication US20120108947A1, “METHOD FOR PREDICTING WEIGHT GAIN ASSOCIATED WITH A PHARMACEUTICAL THERAPY” (priority 2009, published 2012)

Settings: in vivo

## Cc1cc2c(s1)Nc1ccccc1N=C2N1CCN(C)CC1 [olanzapine, 2-methyl-4-(4-methyl-1-piperazinyl)-10H-thieno[2,3-b][1,5]benzodiazepine]
  TRL V6 change from baseline, response predictive of weight gain: 6.5 mg/dL
  TRL V6 change from baseline, subject with less risk: 0.38 mg/dL
  TRL V6 fold increase, subject with less risk: 1.1 fold
  TRL V6 response predictive of treatment emergent weight gain, % increase: approximately 360%
  TRL V6 response predictive of treatment emergent weight gain, fold increase: ~3.6 fold
